Laboratory results as given in patent US7803546B2, “Method of screening for sensitivity to kinase inhibitor therapy” (Cedars-Sinai Medical Center, priority 2002, dated 2010).

System: phosphorylated-EGFR (p-EGFR)
Assay: EGF-stimulated p-EGFR in 22Rv1 cells
Type: cell-based
Conditions: 10 nM IRESSA

Structure (SMILES): COc1cc2ncnc(Nc3ccc(F)c(Cl)c3)c2cc1OCCCN1CCOCC1 [IRESSA, Gefitnib]
- Effect on EGF-stimulated p-EGFR upregulation: completely blocked
